## AlphaSeq binding of Ab-14 heavy chain variants to a spike HR2 peptide

From the AlphaSeq antibody data of Li et al. 2023 (doi:10.1038/s41467-023-39022-2), copy in the FLAb collection.

Antigen: PDVDLGDISGINAS, a 14-residue peptide of the SARS-CoV-2 spike HR2 region.

The variants keep the light chain, the linker and the frameworks of Ab-14 (scFv order VH, three GGGGS repeats, VL).
VH: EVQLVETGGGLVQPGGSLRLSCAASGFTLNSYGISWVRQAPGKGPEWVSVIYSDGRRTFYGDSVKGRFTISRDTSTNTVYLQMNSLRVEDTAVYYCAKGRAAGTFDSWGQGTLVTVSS
VL: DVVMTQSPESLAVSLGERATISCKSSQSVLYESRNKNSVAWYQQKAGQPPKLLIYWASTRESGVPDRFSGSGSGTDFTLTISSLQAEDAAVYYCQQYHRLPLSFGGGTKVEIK

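The parent was found by panning a naive human phage display library on the peptide. Designed CDR sequences, proposed from the first random library and measured here. Their group label is 14H_En_HC (En: ensemble of fine-tuned language models; HC: hill climbing; a sequence that several methods proposed may carry one label only). Affinity was read by AlphaSeq, a pooled yeast mating assay with surface-displayed partners. After mating in shaken culture at 30 °C for 16 h, diploids were selected and their barcode pairs sequenced. Scores were corrected for input abundance and mapped to Kd with protein pairs of known affinity run in the same pool. There are six technical replicates.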

Each variant is given by its three heavy chain CDRs, as the data file delimits them; those of the parent are GFTLNSYGIS, VIYSDGRRTFYGDSVK, GRAAGTFDS.
Affinities are written as log10 Kd with Kd in nM; a lower number is a better binder.
A pair that was not seen in that replicate is written "n.d."; this usually means weak binding, but a binder can also be missed.
Values of this round are not directly comparable with the first-round values of the same sequences.
Empty control strains, which show no peptide, gave a signal in 1% of pairings with all heavy chain designs; the median was 2.08 and 95% of these signals were weaker than 0.84. No background was subtracted. For each scFv, signals with the empty controls are counted beside the result, with their mean in brackets.
The authors' rule: three or more of the six replicates give a measured affinity, fewer mean a poor binder.

CDR-H1 | CDR-H2 | CDR-H3 | replicates, log10 nM | signal with controls
GFDLNEYGIS | VIYADGRRTFYTDSVK | GTGAGTFDV | n.d. / n.d. / n.d. / n.d. / n.d. / n.d. | 0 of 18
GFDLDEYGIS | VIYADGRRTFYADSVK | GTLAGTFDV | -1.29 / -1.11 / -1.19 / -1.40 / -1.33 / -0.93 | 1 of 18 (0.73)
GFDLNEYGIS | VIYADGRRTFYADSVK | GQHAGTFDI | -0.67 / -0.45 / -0.85 / -0.71 / -0.63 / 0.05 | 0 of 18
GFNLNEYGIS | VIYADGRRTFYADSVK | GHAAGTFDV | 0.22 / 0.15 / -0.41 / -0.73 / -0.60 / -0.14 | 0 of 18
GFDLNEYGIS | VIYADGRRTAYSDSVK | GETGGTFDV | -0.03 / 0.32 / -0.46 / 0.15 / 0.06 / 0.26 | 0 of 18
GFDLNEYGIS | VIYADGIRTFYADSVK | GNEAGTFDV | -0.41 / -0.33 / -0.32 / -0.55 / -0.36 / -0.33 | 0 of 18
GFDLNEYGIS | VIYADGVRTQYIDSVK | GEIAGTFDS | -0.26 / -0.55 / -0.52 / -0.08 / -0.36 / -0.07 | 0 of 18
GFDLNEYGIS | VIYADGRRKAYADKVK | GENAGTFNV | -0.41 / -0.33 / -0.44 / -0.50 / -0.33 / -0.34 | 0 of 18
GFDLNEYGIS | VIYADGRRTAYGDSVK | GNNAGTFDQ | -0.40 / -0.70 / -0.78 / -0.87 / -0.65 / -0.56 | 0 of 18
GFDLNEYGIS | VIYADGVRTFYADSVK | GQLAGTFDV | -0.42 / -0.90 / -0.45 / -0.44 / -0.81 / -0.56 | 0 of 18
GFDLNEYGIS | VIYADGRRTFYADSVK | GKIAGTFNT | -0.49 / -0.26 / -0.36 / -0.68 / -0.40 / -0.49 | 1 of 18 (1.82)
GFDLNEYGIS | VIYADGMRTQYIDSVK | GNMAGTFDV | 0.12 / -0.32 / -0.50 / -0.05 / 0.27 / -0.63 | 0 of 18
GFDLNEYGIS | VIYADGRRTFYADSVK | GTVAGTFVS | -0.23 / -0.69 / -0.41 / -0.58 / -0.72 / -0.38 | 0 of 18
GFDLNEYGIS | VIYADGRRTFYADSVK | GEAGGTFDQ | 1.20 / 0.41 / n.d. / 0.27 / 1.47 / n.d. | 0 of 18
GFDLNEYGIS | VIYADGVRTFYADSVK | GSEAGTFNM | -0.71 / -0.98 / -1.25 / -1.14 / -0.88 / -0.93 | 0 of 18
GFDLNEYGIS | VIYADGKRTFYSDSVK | GTTGGTFDM | -0.19 / -0.46 / -0.46 / -0.24 / -0.50 / -0.24 | 0 of 18
GFDLNEYGIS | VIYADGRRTAYLDSVK | GNLAGTFDT | -0.46 / -0.69 / -0.84 / -0.70 / -0.65 / -0.37 | 0 of 18
GFDLNEYGIS | VIYADGRRTFYSDNVK | GTVAGTFDT | -0.69 / -0.88 / -0.67 / -1.32 / -0.85 / -0.70 | 0 of 18
GFDLNEYGIS | VIYADGRRTAYSDSVK | GEVAGTFVV | -0.58 / -0.42 / -0.67 / -0.63 / -0.54 / -0.38 | 1 of 18 (1.63)
GFDLNEYGIS | VIYADGKRTFYTDSVK | GANAGTFDS | -0.87 / -0.72 / -0.77 / -0.71 / -0.72 / -0.57 | 0 of 18
GFDLNEYGIS | VIYADGRRTQYIDSVK | GEAAGTFDI | -0.02 / -0.44 / 0.74 / 0.03 / -0.04 / 0.06 | 0 of 18
GFTLDEYGIS | VIYADGRRTFYTDSVK | GQNAGTFDV | -0.70 / -0.62 / -0.89 / -0.47 / -0.33 / -0.64 | 0 of 18
GFDLNEYGIS | VIYADGVRTAYADSVK | GQVAGTFDS | -0.38 / -0.54 / -0.59 / -0.45 / -0.44 / -0.48 | 0 of 18
GFDLNDYGIS | VIYADGRRTAYIDSVK | GEVAGTFDE | 0.46 / 0.10 / -0.19 / -0.11 / -0.01 / -0.29 | 0 of 18
GFDLDEYGIS | VIYADGMRTFYADSVK | GNIAGTFDM | -0.13 / -0.50 / -0.49 / -0.65 / -0.25 / -0.13 | 0 of 18
GFDLNEYGIS | VIYADGQRTFYTDSVK | GENAGTFDV | 0.48 / 0.34 / 0.05 / -1.05 / -1.21 / n.d. | 0 of 18
GFDLNEYGIS | VIYADGRRTFYADSVK | GNVAGTFFI | 0.42 / 0.32 / -0.23 / 0.41 / 0.65 / 0.21 | 0 of 18
GFNLNEYGIS | VIYADGRRTFYSDSVK | GEVAGTFDS | -0.50 / -0.05 / -0.71 / -0.43 / -0.95 / -0.81 | 0 of 18
GFDLNEYGIS | VIYADGRRTFYIDSVK | GEIAGTFTV | -0.14 / -0.94 / -0.69 / -0.56 / -0.18 / 0.31 | 0 of 18
GFDLNEYGIS | VIYADGRRTFYADSVK | GQAAGTFDV | -0.21 / -0.66 / -0.65 / -0.49 / -0.73 / -0.49 | 0 of 18
GFDLNEYGIS | VIYADGRRTFYSDSVK | GEIAGTFVQ | 1.05 / 0.37 / -0.03 / -0.03 / 0.44 / 0.28 | 1 of 18 (1.65)
GFNLDEYGIS | VIYADGRRTFYADSVK | GQVAGTFDQ | -0.35 / -0.82 / -0.66 / -0.92 / -0.85 / -0.06 | 1 of 18 (1.76)
GFDLNEYGIS | VIYADGRRTFYADSVK | GQIAGTFDV | 0.20 / -0.24 / -0.81 / -0.79 / -0.64 / n.d. | 0 of 18
GFDLNEYGIS | VIYADGQRTFYTDNVK | GQNAGTFDS | -0.43 / -0.48 / -0.57 / -0.17 / -0.24 / -0.33 | 0 of 18
GFDLNEYGIS | VIYADGRRTFYADSVK | GTNAGTFDF | 0.17 / -0.03 / 0.23 / -0.60 / -0.26 / -0.40 | 0 of 18
GFDLNEYGIS | VIYADGRRTFYADSVK | GQLAGTFNV | -0.42 / -0.51 / -0.70 / -0.26 / -0.69 / -0.71 | 1 of 18 (1.75)
GFDLNEYGIS | VIYADGRRTFYADSVK | GTHAGTFDQ | -0.82 / -1.10 / -1.10 / -0.20 / -1.56 / -1.44 | 0 of 18
GFDLNEYGIS | VIYADGLRTFYTDSVK | GEFAGTFDM | -0.73 / -1.07 / -0.78 / -1.22 / -0.85 / -0.69 | 0 of 18
GFDLNEYGIS | VIYADGVRTSYDDSVK | GQLAGTFDQ | -0.07 / -0.55 / -0.12 / -0.47 / -0.88 / -0.47 | 0 of 18
GFDLNEYGIS | VIYADGRRTFYSDSVK | GEIAGFFDQ | -0.63 / -0.40 / -1.09 / -1.07 / -0.82 / -0.57 | 0 of 18
GFDLEDYGIS | VIYADGRRTAYTDSVK | GEAAGTFDS | 0.23 / -0.39 / -0.25 / -0.54 / -0.08 / -0.36 | 1 of 18 (0.98)
GFDLNEYGIS | VIYADGMRTQYIDSVK | GNIAGTFDV | -0.27 / -0.51 / -0.43 / -0.51 / -0.51 / -0.22 | 0 of 18
GFDLEDYGIS | VIYADGRRTFYSDSVK | GEIAGTFDQ | -0.17 / -0.33 / -0.52 / -0.36 / -0.53 / -0.22 | 1 of 18 (1.42)
GFDLNEYGIS | VIYADGRRTAYTDSVK | GHAAGTFDL | -0.59 / -0.61 / -0.65 / -0.83 / -0.66 / -0.46 | 1 of 18 (1.57)

The opening 4 entries, copied out:

| CDR-H1 | CDR-H2 | CDR-H3 | replicates, log10 nM | signal with controls |
|---|---|---|---|---|
| GFDLNEYGIS | VIYADGRRTFYTDSVK | GTGAGTFDV | n.d. / n.d. / n.d. / n.d. / n.d. / n.d. | 0 of 18 |
| GFDLDEYGIS | VIYADGRRTFYADSVK | GTLAGTFDV | -1.29 / -1.11 / -1.19 / -1.40 / -1.33 / -0.93 | 1 of 18 (0.73) |
| GFDLNEYGIS | VIYADGRRTFYADSVK | GQHAGTFDI | -0.67 / -0.45 / -0.85 / -0.71 / -0.63 / 0.05 | 0 of 18 |
| GFNLNEYGIS | VIYADGRRTFYADSVK | GHAAGTFDV | 0.22 / 0.15 / -0.41 / -0.73 / -0.60 / -0.14 | 0 of 18 |